Experimental data published in PMC11602157, “ZNF512B binds RBBP4 via a variant NuRD interaction motif and aggregates chromatin in a NuRD complex-independent manner” (Nucleic Acids Research, 2024).

Chains of the proteins cited; added tags and fusions are not shown.
RBBP4, recombinant, for fluorescence polarization (human), Q09028, UniProt Q09028, whole entry: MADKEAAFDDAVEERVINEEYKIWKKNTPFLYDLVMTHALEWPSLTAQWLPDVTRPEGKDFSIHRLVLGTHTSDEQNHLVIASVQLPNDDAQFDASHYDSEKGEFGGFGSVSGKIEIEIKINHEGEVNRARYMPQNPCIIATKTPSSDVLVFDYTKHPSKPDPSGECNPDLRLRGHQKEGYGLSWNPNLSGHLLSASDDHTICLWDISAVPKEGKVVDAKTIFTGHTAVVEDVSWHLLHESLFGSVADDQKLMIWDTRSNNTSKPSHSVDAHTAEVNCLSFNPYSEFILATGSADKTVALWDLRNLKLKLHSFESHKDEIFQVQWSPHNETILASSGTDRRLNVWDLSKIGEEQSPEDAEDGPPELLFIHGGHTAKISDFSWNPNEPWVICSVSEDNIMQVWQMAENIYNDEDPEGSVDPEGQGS

Target: RBBP4, recombinant, for fluorescence polarization (human), Q09028
Test: fluorescence polarisation; competitive: unlabeled peptide (1.0–0.0 mM series) added to preformed complex of 1 nM FAM tracer and 40 nM RBBP4; 50 mM Tris-HCl pH 7.5, 150 mM NaCl, 0.02% Triton X-100; read after 60 min; ki from IC50

Ki: 1200 nM
Binder: MSRRKQSNPRQI (modifications not checked) [FOG-1 NIM peptide]
